Test results from BindingDB's records for doi:10.1021/jm8000949 (China Pharmaceutical University, 2008).

Target: T1, Glycogen phosphorylase, muscle form (Oryctolagus cuniculus, UniProt P00489)
T1 sequence (P00489 whole entry): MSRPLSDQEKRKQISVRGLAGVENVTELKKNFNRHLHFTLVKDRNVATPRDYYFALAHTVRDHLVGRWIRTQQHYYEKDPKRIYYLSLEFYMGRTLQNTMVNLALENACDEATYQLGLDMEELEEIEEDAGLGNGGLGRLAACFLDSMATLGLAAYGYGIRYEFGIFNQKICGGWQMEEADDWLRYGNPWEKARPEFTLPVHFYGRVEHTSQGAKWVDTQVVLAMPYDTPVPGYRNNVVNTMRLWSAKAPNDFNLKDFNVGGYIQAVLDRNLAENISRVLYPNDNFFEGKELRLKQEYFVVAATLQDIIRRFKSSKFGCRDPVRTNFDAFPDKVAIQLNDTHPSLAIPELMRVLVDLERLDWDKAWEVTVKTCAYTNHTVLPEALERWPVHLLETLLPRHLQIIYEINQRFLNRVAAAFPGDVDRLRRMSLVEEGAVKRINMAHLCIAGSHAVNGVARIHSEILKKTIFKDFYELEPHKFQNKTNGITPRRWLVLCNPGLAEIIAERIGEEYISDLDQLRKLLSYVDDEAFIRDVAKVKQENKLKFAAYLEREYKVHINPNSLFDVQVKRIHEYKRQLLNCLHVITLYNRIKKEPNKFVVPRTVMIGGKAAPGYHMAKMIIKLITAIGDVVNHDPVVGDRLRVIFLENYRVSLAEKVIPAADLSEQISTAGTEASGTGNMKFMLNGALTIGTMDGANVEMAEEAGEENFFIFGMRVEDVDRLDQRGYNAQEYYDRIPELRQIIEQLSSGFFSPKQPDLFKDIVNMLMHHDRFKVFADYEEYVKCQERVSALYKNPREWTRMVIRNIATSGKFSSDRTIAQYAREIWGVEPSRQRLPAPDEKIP
Test: Enzyme Inhibition Assay
Conditions: pH 7.2; 22 °C
Description: The activity of the compounds is determined by measuring the inhibitory effect of the compounds in the direction of glycogen synthesis, the conversion of glucose-1-phosphate into glycogen with the release of inorganic phosphate, which was monitored using microplate reader (BIO-RAD). […] The IC50 values were estimated by fitting the inhibition data to a dose dependent curve using a logistic derivative equation.

IC50 [µM]	Compound
14	CC1(C)CC[C@]2(C(=O)O)CC[C@]3(C)C(=CC[C@@H]4[C@@]5(C)CC[C@H](O)C(C)(C)C5CC[C@]43C)[C@@H]2C1 (some centres not stated) [pentacyclic triterpene compound 1]
21	CC1(C)CC[C@]2(C(=O)O)CC[C@]3(C)C(=CC[C@@H]4[C@@]5(C)CC[C@@H](O)C(C)(C)C5CC[C@]43C)[C@@H]2C1 (some centres not stated) [pentacyclic triterpene compound 2]
